Laboratory results: ChEMBL document CHEMBL1142267, “Optimization of alpha-ketooxazole inhibitors of fatty acid amide hydrolase” (J Med Chem, 2008)

Legend:
[1] = Selectivity for rat recombinant FAAH over KIAA1363
[2] = Selectivity for rat recombinant FAAH over TGH

Ratio IC50 [1]: > 50000 | Ratio IC50 [2]: 100
SMILES: O=C(CCc1ccc(Oc2ccccc2)cc1)c1ncc(-c2ccccn2)o1
